Reference: PubChem BioAssay (NCI)
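Cultured in 96-well plates, cells were exposed to test compound for 48 hours across five concentrations. At the GI50, growth is halved. TGI: concentration producing complete growth inhibition.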

Tests used:
Assay in all cases: NCI-60 cell line screen, 48 h
[1] = test system: MOLT-4 leukemia
[2] = test system: NCI-H23 lung
[3] = test system: KM12 colon
[4] = test system: IGROV1 ovarian
[5] = test system: MALME-3M melanoma
[6] = test system: ACHN renal
[7] = test system: SF-295 CNS
[8] = test system: HOP-62 NSCLC
[9] = test system: NCI-H322M lung
[10] = test system: NCI-H522 lung
[11] = test system: SF-268 CNS
[12] = test system: LOX IMVI melanoma
[13] = test system: RXF 393 renal
[14] = test system: OVCAR-8 ovarian
[15] = test system: NCI/ADR-RES ovarian
[16] = test system: TK-10 renal
[17] = test system: NCI-H226 lung
[18] = test system: UO-31 renal
[19] = test system: SNB-75 CNS
[20] = test system: M14 melanoma
[21] = test system: MCF7 breast
[22] = test system: OVCAR-3 ovarian
[23] = test system: SK-OV-3 ovarian
[24] = test system: SK-MEL-5 melanoma
[25] = test system: RPMI-8226 leukemia
[26] = test system: K-562 leukemia
[27] = test system: HCT-116 colon
[28] = test system: NCI-H460 lung

Question: Which results are given for `CCOP(=O)(NC(N)=O)OCC`?
Answer: GI50 [1]: > 100 µM; TGI [1]: > 100 µM; GI50 [2]: > 100 µM; TGI [2]: > 100 µM; GI50 [3]: > 100 µM; TGI [3]: > 100 µM; GI50 [4]: > 100 µM; TGI [4]: > 100 µM; GI50 [5]: > 100 µM; TGI [5]: > 100 µM; GI50 [6]: > 100 µM; TGI [6]: > 100 µM; GI50 [7]: > 100 µM; TGI [7]: > 100 µM; GI50 [8]: > 100 µM; TGI [8]: > 100 µM; GI50 [9]: > 100 µM; TGI [9]: > 100 µM; GI50 [10]: > 100 µM; TGI [10]: > 100 µM; GI50 [11]: > 100 µM; TGI [11]: > 100 µM; GI50 [12]: > 100 µM; TGI [12]: > 100 µM; GI50 [13]: > 100 µM; TGI [13]: > 100 µM; GI50 [14]: > 100 µM; TGI [14]: > 100 µM; GI50 [15]: > 100 µM; TGI [15]: > 100 µM; GI50 [16]: > 100 µM; TGI [16]: > 100 µM; GI50 [17]: > 100 µM; TGI [17]: > 100 µM; GI50 [18]: > 100 µM; TGI [18]: > 100 µM; GI50 [19]: > 100 µM; TGI [19]: > 100 µM; GI50 [20]: > 100 µM; TGI [20]: > 100 µM; GI50 [21]: > 100 µM; TGI [21]: > 100 µM; GI50 [22]: > 100 µM; TGI [22]: > 100 µM; GI50 [23]: > 100 µM; TGI [23]: > 100 µM; GI50 [24]: > 100 µM; TGI [24]: > 100 µM; GI50 [25]: > 100 µM; TGI [25]: > 100 µM; GI50 [26]: > 100 µM; TGI [26]: > 100 µM; GI50 [27]: > 100 µM; TGI [27]: > 100 µM; GI50 [28]: > 100 µM; TGI [28]: > 100 µM
